We go through one compound from patent publication US20260174749A1, “COMBINATION THERAPY WITH SUBSTITUTED 3-((3-AMINOPHENYL)AMINO)PIPERIDINE-2,6- DIONE COMPOUNDS” (Bristol-Myers Squibb Company, priority 2022, published 2026).

The experiment concerns 22RV1 cells. Kind of experiment: CTG proliferation assay, in-vitro combination screen, 22RV1. It counts as cell-based. The following applies: second agent in combination with Compound I, 7 days. On the procedure:
Three prostate cancer cell lines LNCAP, VCAP, and 22RV1 were used in this screen. Briefly, LNCaP cells were cultured in RPMI medium supplemented with 10% FBS, 1% penicillin/streptomycin, 10 mM HEPES, 1 mM sodium pyruvate, and 1.5 g/L sodium bicarbonate. […] PC3 cells were cultured in F12K medium supplemented with 10% FBS and 1% penicillin/streptomycin. 22RV1 cells were cultured in RPMI1640 medium supplemented with 10% FBS and 1% penicillin/streptomycin. […] VCaP cells were cultured in DMEM medium supplemented with 10% FBS, 1% penicillin/streptomycin 1 mM sodium pyruvate, 1.5 g/L sodium bicarbonate on high bind treated tissue culture flasks (Corning CellBIND) to increase cell surface attachment. […] The combination plates seeded with cells were then incubated for 7 days at 37° C. and 5% CO2. Cell viability assays were then performed on the plates using Promega CellTiter-Glo (CTG) Luminescent Cell Viability Assay kit and following the manufacturer's protocol. 20 μL of CTG reagent was added to each well of the 384 well plate, and plates were then incubated for 45 minutes before measuring the […] using PerkinElmer EnVision Plate Reader.
Synergy is calculated by Bliss and HSA excess scores. […] A negative HSA excess score indicates antagonism, while a positive HSA excess indicates additivity and synergy is detected when also the Bliss excess score is positive. […]

Take `CNC(=O)c1cc(Oc2ccc(NC(=O)Nc3ccc(Cl)c(C(F)(F)F)c3)cc2)ccn1` [Sorafenib, sorafenib]: the Synergy excess is on record as 0.17.
